## scFv variants of Ab-14 (light chain) against a SARS-CoV-2 spike peptide

All variants were tested on one target, the spike HR2 peptide PDVDLGDISGINAS (SARS-CoV-2).

Each scFv is VH, three GGGGS repeats, VL, as in the parent Ab-14, and differs from it in the CDRs of the light chain only.
VH: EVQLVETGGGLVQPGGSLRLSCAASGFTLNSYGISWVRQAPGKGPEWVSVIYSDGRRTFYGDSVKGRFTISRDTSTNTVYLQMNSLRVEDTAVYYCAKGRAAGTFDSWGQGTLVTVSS
VL: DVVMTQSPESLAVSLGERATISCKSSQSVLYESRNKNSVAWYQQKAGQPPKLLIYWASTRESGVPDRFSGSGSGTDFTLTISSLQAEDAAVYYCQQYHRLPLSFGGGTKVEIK

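The parent was found by panning a naive human phage display library on the peptide. AAYL50 was designed without a model: most single CDR substitutions and a random sample of double and triple ones. Affinity was read by AlphaSeq, a pooled yeast mating assay with surface-displayed partners. Pairs that bind mate more often; barcode pairs of the diploids are counted by sequencing. Each replicate has its own calibration line, from reference interactions of the BCL2 family. The assay was run in three technical replicates.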

Variants are written as CDR1, CDR2 and CDR3 of the light chain (limits as in the source). Parent: KSSQSVLYESRNKNSVA, WASTRES, QQYHRLPLS. This list gathers variants with a substitution at K24 (VL, numbered from residue 1). Values are apparent Kd, the geometric mean of the replicates that gave a signal; lower means stronger binding. "nd" marks a missing value. The strain was present, yet no cells mated with the target were sequenced in any replicate, which points to weak or no binding.

For NSSQSVLYESRNKNSVA / WASTRMS / QQYHRLPLS, the assay gave 22 nM (3 of 3 replicates).
For GSSQSVLYESRPKNVVA / WASTRES / QQYHRLPLS, the assay gave 5.5 µM (1 of 3 replicates).
For GSSQSVLYESRNKNSVA / WASARES / QQYKRLPLS, the assay gave 14 µM (1 of 3 replicates).
For ASSQSVLYESRNCNSVA / WASTRES / QQYHRLKLS, the assay gave nd (0 of 3 replicates).
For ISSCSVLYESRNKNSVA / WASTREI / QQYHRLPLS, the assay gave 190 nM (3 of 3 replicates).
For ESSQSVLYESRNKNSVA / WASTCES / QQYHRLPLS, the assay gave nd (0 of 3 replicates).
For CSSQSVLYESRNKESVA / WASTREY / QQYHRLPLS, the assay gave 11 µM (3 of 3 replicates).
For WSSCSVLYESRNKNSVA / WASTRES / QQLHRLPLS, the assay gave 3.4 µM (3 of 3 replicates).
For ASSQSVLYESRGKNSVA / WASTRES / QQYHRLPLS, the assay gave nd (0 of 3 replicates).
For VSSKSVLYESRNKNSVA / WASTRES / QQYVRLPLS, the assay gave 340 nM (1 of 3 replicates).
For QSSQSVLYESRNKNSVA / WLSTRES / QQYHRLPLS, the assay gave 6.6 nM (1 of 3 replicates).
For RSSQSVLYESRNFNSVA / WASTRES / QHYHRLPLS, the assay gave 7.2 nM (3 of 3 replicates).
For SSSQSVLYESRNKNSVA / WASTRES / QQMHSLPLS, the assay gave nd (0 of 3 replicates).
For FSSQSVLYESRNKNYVA / WASWRES / QQYHRLPLS, the assay gave 2.0 µM (1 of 3 replicates).
For MSSQSVLYSSRNKNSVA / WASTNES / QQYHRLPLS, the assay gave 36 µM (2 of 3 replicates).
For TSSQSVLYEARNKNSVA / WASTRES / QQYHTLPLS, the assay gave 56 nM (2 of 3 replicates).
For SESQSVLYESRNKNSVA / WASTRES / QQYHRLPLS, the assay gave 49 nM (3 of 3 replicates).
For DSSQSVLYESRNKKSVA / WATTRES / QQYHRLPLS, the assay gave 1.1 µM (2 of 3 replicates).
For QSSQSVLYEYRNKNSVA / WASTREH / QQYHRLPLS, the assay gave 16 µM (1 of 3 replicates).
For TSSQSVLYESHNKNSVA / WASTRES / KQYHRLPLS, the assay gave nd (0 of 3 replicates).
For NSSQSGLYESRNKNSVA / WASRRES / QQYHRLPLS, the assay gave 30 nM (3 of 3 replicates).
For ASSQSVLCESRNKNSVA / WASTRES / QQYFRLPLS, the assay gave nd (0 of 3 replicates).
For DSSQSVLYESRNKNSVA / WAHTRES / QQYHRLPLS, the assay gave 340 nM (3 of 3 replicates).
For SSSQSVLYESRNKNSVA / CASTREH / QQYHRLPLS, the assay gave 57 µM (3 of 3 replicates).
For SSSQSVLAESRNKNSVA / WASTRES / QQYHRNPLS, the assay gave 5.1 nM (3 of 3 replicates).
For NSSQSVLYESRNKNSVA / WASTRES / QQYCRLPLS, the assay gave 180 nM (3 of 3 replicates).
For YSSQSVLYESRNKNSVA / WTSTRES / QQYERLPLS, the assay gave 42 nM (3 of 3 replicates).
For ESSQSVLYESRNLNSVS / WASTRES / QQYHRLPLS, the assay gave 1.3 mM (1 of 3 replicates).
For ISSQSVLYESRNKNSVA / WASTRES / NQYHRLPLG, the assay gave nd (0 of 3 replicates).
For ASSQSVMYESRNKNSVA / WASTRES / QQYHREPLS, the assay gave nd (0 of 3 replicates).
For WSSQSELYESRRKNSVA / WASTRES / QQYHRLPLS, the assay gave 11 µM (1 of 3 replicates).
For TSSQSVLYESRNMNSVA / WASTRES / QIYHRLPLS, the assay gave 9.4 nM (3 of 3 replicates).
For HSSQMVLYESRNKNSVA / WASTRES / QQYHRTPLS, the assay gave 2.9 µM (1 of 3 replicates).
For WSSQSVLYESRNKNTVA / WLSTRES / QQYHRLPLS, the assay gave nd (0 of 3 replicates).
For WSSFSVLYESRNKNSSA / WASTRES / QQYHRLPLS, the assay gave 13 µM (2 of 3 replicates).
For NSSQSVLYESWNKNSVA / WAQTRES / QQYHRLPLS, the assay gave 130 nM (3 of 3 replicates).
For FSSQSVLYESRNKNSVA / WASIRES / QQYHRLPLK, the assay gave 94 nM (3 of 3 replicates).
For FSSQSVLYESRNKNSNA / WRSTRES / QQYHRLPLS, the assay gave 920 µM (1 of 3 replicates).
For WSSQSVLYESRNKNSVA / FASTEES / QQYHRLPLS, the assay gave nd (0 of 3 replicates).
For NSSQSVLYESRNKNSVA / WASTRYS / QQYHRLPLS, the assay gave 13 nM (3 of 3 replicates).
For LSSQSVLYWSRNFNSVA / WASTRES / QQYHRLPLS, the assay gave 430 µM (2 of 3 replicates).
For YSSQSVLYESRNKNSVA / WASTRES / QQEHRLPLS, the assay gave nd (0 of 3 replicates).
For NSSQSVLYESRPKNSVA / WASTRES / QHYHRLPLS, the assay gave 38 nM (3 of 3 replicates).
For WSSQSVLCESRNKNSVA / WALTRES / QQYHRLPLS, the assay gave 42 µM (1 of 3 replicates).
For ISSQSVLYESRNKNSVA / WASTRES / QQYRRLPLS, the assay gave 55 nM (3 of 3 replicates).
For MFSQSVLYESRNKNSDA / WASTRES / QQYHRLPLS, the assay gave 70 µM (1 of 3 replicates).
For CSSQSVLYRSRNKNSVA / WASKRES / QQYHRLPLS, the assay gave nd (0 of 3 replicates).
For NSSQSVLYESRNKDSVA / WASTREP / QQYHRLPLS, the assay gave 52 nM (3 of 3 replicates).
For HNSQSVLYESRNKNSVA / WYSTRES / QQYHRLPLS, the assay gave 4.1 µM (1 of 3 replicates).

Excerpt, the final 6 entries:

CDR-L1	CDR-L2	CDR-L3	Kd (apparent)	replicates with signal
WSSQSVLCESRNKNSVA	WALTRES	QQYHRLPLS	42 µM	1 of 3
ISSQSVLYESRNKNSVA	WASTRES	QQYRRLPLS	55 nM	3 of 3
MFSQSVLYESRNKNSDA	WASTRES	QQYHRLPLS	70 µM	1 of 3
CSSQSVLYRSRNKNSVA	WASKRES	QQYHRLPLS	nd	0 of 3
NSSQSVLYESRNKDSVA	WASTREP	QQYHRLPLS	52 nM	3 of 3
HNSQSVLYESRNKNSVA	WYSTRES	QQYHRLPLS	4.1 µM	1 of 3

In this assay the parent's reference entry averaged 4.4 nM; its copy inside this library read 48 nM. Empty control strains, which show no peptide, gave a signal in 18% of pairings with library AAYL50; the median was 15 µM and 95% of these signals were weaker than 970 nM. No background was subtracted.

Source: Engelhart et al. 2022 (doi:10.1038/s41597-022-01779-4), MIT Lincoln Laboratory and A-Alpha Bio; data file from the FLAb repository.